This passage reports EC50 results from patent US6303751A, “Human metabotropic glutamate receptor and related DNA compounds” (Eli Lilly and Company, priority 1995, dated 2001).

Chains of the proteins cited; added tags and fusions are not shown. Residues count along the entry.
UniProt Q13255, 19-1194 S593P/S993P: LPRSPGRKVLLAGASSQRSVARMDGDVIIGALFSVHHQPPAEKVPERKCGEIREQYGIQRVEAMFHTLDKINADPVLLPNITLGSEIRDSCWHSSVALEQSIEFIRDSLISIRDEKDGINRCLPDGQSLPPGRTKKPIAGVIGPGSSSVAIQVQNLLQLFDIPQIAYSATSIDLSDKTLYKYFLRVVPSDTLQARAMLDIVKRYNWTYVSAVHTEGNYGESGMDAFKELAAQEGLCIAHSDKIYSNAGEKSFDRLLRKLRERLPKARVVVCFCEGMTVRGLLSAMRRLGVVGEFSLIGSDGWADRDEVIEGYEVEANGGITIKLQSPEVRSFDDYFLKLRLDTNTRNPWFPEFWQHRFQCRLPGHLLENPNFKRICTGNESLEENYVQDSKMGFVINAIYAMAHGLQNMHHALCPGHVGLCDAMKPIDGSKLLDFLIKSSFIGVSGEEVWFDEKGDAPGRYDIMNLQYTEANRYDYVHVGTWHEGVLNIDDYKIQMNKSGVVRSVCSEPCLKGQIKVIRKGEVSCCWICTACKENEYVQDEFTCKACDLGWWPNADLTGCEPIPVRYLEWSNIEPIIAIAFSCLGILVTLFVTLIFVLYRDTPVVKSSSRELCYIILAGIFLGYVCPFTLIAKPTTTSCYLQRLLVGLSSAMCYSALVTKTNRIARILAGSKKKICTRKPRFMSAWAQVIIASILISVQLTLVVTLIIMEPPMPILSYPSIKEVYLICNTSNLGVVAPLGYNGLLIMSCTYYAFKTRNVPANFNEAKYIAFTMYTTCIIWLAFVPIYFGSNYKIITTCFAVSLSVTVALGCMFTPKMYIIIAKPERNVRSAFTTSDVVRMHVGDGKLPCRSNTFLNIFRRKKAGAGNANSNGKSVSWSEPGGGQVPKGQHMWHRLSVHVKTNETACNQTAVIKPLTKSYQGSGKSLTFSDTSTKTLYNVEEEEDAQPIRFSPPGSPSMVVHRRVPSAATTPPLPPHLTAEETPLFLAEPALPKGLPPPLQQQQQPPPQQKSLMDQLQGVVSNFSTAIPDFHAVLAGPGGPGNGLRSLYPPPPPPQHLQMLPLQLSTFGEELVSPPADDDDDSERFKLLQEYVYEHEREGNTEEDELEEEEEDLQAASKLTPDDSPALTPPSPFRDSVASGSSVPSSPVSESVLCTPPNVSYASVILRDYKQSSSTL

Structures are written as SMILES.

The target in the experiment is T1, HSmGluR1 receptor (human metabotropic glutamate receptor) expressed in Xenopus oocytes (Homo sapiens, UniProt Q13255).
T1 construct: RNA transcripts encoding the HSmGluR1 receptor were produced by enzymatic transcription from pRS117; expressed in transfected cells; host or cells: Xenopus laevis oocytes injected with in vitro transcribed RNA from pRS117
The experiment is described as follows: Electrophysiological recording of HSmGluR1 receptor expressed in Xenopus oocytes. It is filed as cell-based.

Consider `N[C@@H](Cn1oc(=O)[nH]c1=O)C(=O)O` [quisqualate], for which the EC50 (commonly the midpoint of the concentration-response curve) is 400 nM.
